{
  "sequences": {"note": "Protein sequences, listed by entry. Tags and fused reporters are not part of them.", "UniProt P31652, whole entry": "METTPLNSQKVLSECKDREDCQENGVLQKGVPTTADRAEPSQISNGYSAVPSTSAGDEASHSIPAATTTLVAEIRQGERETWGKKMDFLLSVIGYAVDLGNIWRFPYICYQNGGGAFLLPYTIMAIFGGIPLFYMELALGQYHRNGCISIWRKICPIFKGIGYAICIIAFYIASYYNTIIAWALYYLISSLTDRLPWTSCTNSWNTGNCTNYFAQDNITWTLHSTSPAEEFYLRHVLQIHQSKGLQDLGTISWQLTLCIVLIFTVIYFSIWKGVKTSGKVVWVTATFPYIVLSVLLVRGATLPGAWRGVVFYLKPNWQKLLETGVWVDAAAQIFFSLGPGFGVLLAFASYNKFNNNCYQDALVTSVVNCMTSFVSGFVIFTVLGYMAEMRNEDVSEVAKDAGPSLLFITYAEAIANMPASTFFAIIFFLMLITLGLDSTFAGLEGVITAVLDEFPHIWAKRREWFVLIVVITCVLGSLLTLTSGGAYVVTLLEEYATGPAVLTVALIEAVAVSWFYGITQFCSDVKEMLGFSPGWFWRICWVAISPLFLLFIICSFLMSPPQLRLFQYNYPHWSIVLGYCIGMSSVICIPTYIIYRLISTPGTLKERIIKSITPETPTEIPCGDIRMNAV"},
  "source": "paper PMC3894853",
  "about": "(2013)",
  "molecular_target": "SERT (Rattus norvegicus, UniProt P31652)",
  "test": "Radioligand binding assay for SERT, displacement of [3H]1",
  "settings": "Table 3; selectivity ratio",
  "data": [
    {"smiles": "CCCN(C)CCCC1(c2ccc(F)cc2)OCc2cc(C#N)ccc21", "note": "(racemic) [Compound 40, 1-(4-Fluorophenyl)-1-(3-(methyl(propyl)amino)propyl)-1,3-dihydroisobenzofuran-5-carbonitrile]", "values": [
      {"measurement": "Ki(NET)/Ki (SERT)", "value": ">100"}
    ]}
  ]
}
